Assay results as given in publication PMC5887109, “Unravelling the Molecular Determinants of Bee Sensitivity to Neonicotinoid Insecticides” (Current Biology, 2018).

Chains of the proteins cited; added tags and fusions are not shown.
UniProt A0A7M7GTV9, entry or part of it: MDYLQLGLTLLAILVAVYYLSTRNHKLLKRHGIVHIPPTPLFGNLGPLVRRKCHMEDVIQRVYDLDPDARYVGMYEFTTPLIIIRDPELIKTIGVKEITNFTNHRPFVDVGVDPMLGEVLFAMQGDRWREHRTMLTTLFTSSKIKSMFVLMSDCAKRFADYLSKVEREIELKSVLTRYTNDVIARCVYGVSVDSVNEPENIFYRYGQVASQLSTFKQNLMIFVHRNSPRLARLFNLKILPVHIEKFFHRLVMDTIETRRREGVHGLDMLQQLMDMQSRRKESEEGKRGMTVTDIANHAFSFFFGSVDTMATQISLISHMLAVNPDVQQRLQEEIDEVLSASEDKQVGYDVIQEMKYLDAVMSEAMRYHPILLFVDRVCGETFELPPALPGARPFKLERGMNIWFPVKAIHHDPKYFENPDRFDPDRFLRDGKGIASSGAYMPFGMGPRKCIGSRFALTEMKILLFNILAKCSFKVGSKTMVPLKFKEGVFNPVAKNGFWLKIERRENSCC

Tests used:
[1] = tested on: transgenic Drosophila expressing B. terrestris CYP9Q4; experiment: Insecticide bioassay of transgenic Drosophila expressing CYP9Q4; format: in vivo, Drosophila melanogaster; settings: Act5C-GAL4 driven; ratio of LC50 values
Protocol: (§1) Fly lines were made homozygous for the transgene integrations. […] LC50 values were calculated as above.

[2] = tested on: transgenic Drosophila expressing honeybee CYP9Q1; experiment: Insecticide bioassay of transgenic Drosophila expressing CYP9Q1; format: in vivo, Drosophila melanogaster; settings: Act5C-GAL4 driven; ratio of LC50 values
Protocol: as §1

CYP6AS5 = experiment: Metabolism by recombinant CYP6AS5/CPR microsomes, LC-MS/MS; settings: at least
Text: (§2) All bee P450 (see Table S3 for accession numbers) and house fly NADPH-dependent cytochrome P450 reductase (CPR) (GenBank accession number Q07994) genes were obtained by gene synthesis (Geneart, CA, USA) and inserted into the pDEST8 expression vector (Invitrogen). Codon optimization of all bee genes was used to optimize expression in lepidopteran cell lines. The PFastbac1 vector with no inserted DNA was used to produce a control virus. The recombinant baculovirus DNA was constructed and transfected into Trichoplusia ni (High five cells, Thermo Fisher) using the Bac-to-Bac baculovirus expression system (Invitrogen) according to the manufacturer’s instructions. The titer of the recombinant virus was determined following protocols of the supplier. High Five cells grown to a density of 2 × 10^6 cells ml^-1 were co-infected with recombinant baculoviruses containing each bee P450 and CPR with a range of MOI (multiplicity of infection) ratios to identify the optimal conditions. […] The protein content of samples was determined using Bradford reagent (Sigma) and bovine serum albumin (BSA) as a reference.
(§3) The total assay volume was 200 μL using three replicates for each data point. […] The assay was stopped by the addition of ice-cold acetonitrile (to 80% final concentration), centrifuged for 10 min at 3000 g and the supernatant subsequently analyzed by tandem mass spectrometry as described previously. […]

[3] = tested on: transgenic Drosophila expressing CYP9Q3 in Malpighian tubules and neuronal cells; settings: Malp-GAL4 driver
Protocol: as §1

A. mellifera = experiment: Acute contact (topical) insecticide bioassay of honeybees, with or without ABT; settings: honeybees pretreated with ABT (1-aminobenzotriazole)
Protocol: (§4) Acute contact insecticide assays were performed on female A. mellifera following standard methods OECD 2013 [30]. Bioassays of B. terrestris were based on the OECD guidelines developed for honeybees but with bees assayed in individual Nicot cages. Bees were starved of sucrose solution for up to 2 hr to encourage feeding during the experiment. […] Controls were fed a solution of sucrose containing a concentration of acetone matching that of the highest treatment concentration. After 4-6 hr the syringes were assessed to see if bees had consumed the insecticide-sucrose solution. Those that had not consumed all of the solution were excluded from the experiment. Mortality was assessed 48 hr after feeding and lethal concentrations (LC50 values) were calculated by probit analysis using Genstat version 16 (VSN International). For synergist bioassays, B. terrestris or A. mellifera workers were first treated with 20 μg of piperonyl butoxide or 1 μg of aminobenzotriazole applied to the dorsal thorax. Synergist bioassays included an additional control group treated only with the synergist. 1 hr after synergist application, bees were then treated with the appropriate insecticide dosage as above.

[4] = tested on: transgenic Drosophila expressing honeybee CYP9Q2; experiment: Insecticide bioassay of transgenic Drosophila expressing CYP9Q2; format: in vivo, Drosophila melanogaster; settings: Act5C-GAL4 driven; ratio of LC50 values
Protocol: as §1

[5] = tested on: transgenic Drosophila expressing honeybee CYP9Q3; experiment: Insecticide bioassay of transgenic Drosophila expressing CYP9Q3; format: in vivo, Drosophila melanogaster; settings: Act5C-GAL4 driven; ratio of LC50 values
Protocol: as §1

[6] = tested on: transgenic Drosophila expressing B. terrestris CYP9Q5; experiment: Insecticide bioassay of transgenic Drosophila expressing CYP9Q5; format: in vivo, Drosophila melanogaster; settings: Act5C-GAL4 driven; ratio of LC50 values
Protocol: as §1

Bombus terrestris = experiment: Acute oral insecticide bioassay of bumble bees, with or without PBO; settings: PBO versus no synergist
Protocol: as §4

CYP9Q1 = CYP9Q1 (Apis mellifera, UniProt A0A7M7GTV9); settings: at least
Text: as §2, §3

CYP9Q2 = target: T1, CYP9Q2 (Apis mellifera, UniProt A0A7M7R6F2); settings: at least
T1 sequence (A0A7M7R6F2 1-532): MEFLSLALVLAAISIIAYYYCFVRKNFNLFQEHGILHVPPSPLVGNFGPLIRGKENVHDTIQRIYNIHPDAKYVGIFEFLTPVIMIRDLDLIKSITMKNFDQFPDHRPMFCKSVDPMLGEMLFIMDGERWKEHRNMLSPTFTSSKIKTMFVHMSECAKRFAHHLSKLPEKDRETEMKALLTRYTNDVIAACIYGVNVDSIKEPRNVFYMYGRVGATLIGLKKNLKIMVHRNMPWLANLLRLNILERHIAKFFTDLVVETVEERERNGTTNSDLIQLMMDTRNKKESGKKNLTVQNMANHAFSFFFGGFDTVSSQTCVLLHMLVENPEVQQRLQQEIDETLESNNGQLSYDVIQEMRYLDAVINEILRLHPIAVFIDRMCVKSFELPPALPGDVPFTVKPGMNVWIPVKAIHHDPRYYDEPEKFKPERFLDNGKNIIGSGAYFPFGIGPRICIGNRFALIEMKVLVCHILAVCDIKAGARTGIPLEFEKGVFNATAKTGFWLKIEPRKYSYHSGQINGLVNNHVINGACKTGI
T1 sequence (Q07994 1-671 partner): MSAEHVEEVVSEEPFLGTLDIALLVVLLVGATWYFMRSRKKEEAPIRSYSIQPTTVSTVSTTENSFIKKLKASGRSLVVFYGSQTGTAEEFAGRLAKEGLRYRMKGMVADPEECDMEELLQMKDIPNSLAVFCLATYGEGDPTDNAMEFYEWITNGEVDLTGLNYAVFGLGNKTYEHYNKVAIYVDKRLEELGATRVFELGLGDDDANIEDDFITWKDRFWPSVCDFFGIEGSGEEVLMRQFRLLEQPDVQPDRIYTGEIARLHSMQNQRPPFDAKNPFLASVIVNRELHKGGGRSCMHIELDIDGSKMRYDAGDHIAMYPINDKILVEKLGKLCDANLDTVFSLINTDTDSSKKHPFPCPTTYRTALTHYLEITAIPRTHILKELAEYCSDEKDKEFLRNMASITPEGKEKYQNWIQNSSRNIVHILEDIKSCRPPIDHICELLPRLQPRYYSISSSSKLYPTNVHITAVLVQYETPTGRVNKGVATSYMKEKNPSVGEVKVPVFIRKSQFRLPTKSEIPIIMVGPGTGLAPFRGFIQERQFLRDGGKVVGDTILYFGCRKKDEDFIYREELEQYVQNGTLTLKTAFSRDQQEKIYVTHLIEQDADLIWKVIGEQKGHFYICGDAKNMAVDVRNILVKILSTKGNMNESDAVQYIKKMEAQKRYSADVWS
Text: as §2, §3

N#C/N=C1\SCCN1Cc1ccc(Cl)nc1 [thiacloprid]
resistance compared to control flies without the transgene [1]: ~5 fold
resistance compared to control flies without the transgene [2]: no change in sensitivity
activity against thiacloprid, fold lower than that seen for CYP9Q3 (CYP6AS5): > 10 fold
resistance of flies with CYP9Q3 expression directed to Malpighian tubules and neuronal cells [3]: Significant levels of thiacloprid resistance
fold more sensitive after pretreatment with ABT (A. mellifera): > 170 fold
resistance compared to control flies without the transgene [4]: 3.5 fold
resistance compared to control flies without the transgene [5]: > 10 fold
resistance compared to control flies without the transgene [6]: no change in sensitivity
Synergism Ratio (Bombus terrestris): 4.2
activity against thiacloprid, fold lower than that seen for CYP9Q3 (CYP9Q1): > 10 fold
activity against thiacloprid, fold lower than that seen for CYP9Q3 (CYP9Q2): > 10 fold
